# According to publication PMC5026484, “bMERB domains are bivalent Rab8 family effectors evolved by gene duplication” (eLife, 2016):
# B1: bMERB domain (Rab binding domain) of Mical-1, residues 918-1067 (domain or fragment, human, UniProt Q8TDZ2 918-1067, looked up)
# chain: KEEEMKRFCKAQTIQRRLNEIEAALRELEAEGVKLELALRRQSSSPEQQKKLWVGQLLQLVDKKNSLVAEEAELMITVQELNLEEKQWQLDQELRGYMNREENLKTAADRQAEDQVLRKLVDLVNQRDALIRFQEERRLSELALGTGAQG
# notes: Mical-1, human, bMERB domain, residues 918-1067 (isoform 1); Limits are stated for the crystallised construct; also called Mical-1_(918-1067); RBD of Mical-1
# B2: bMERB domain (Rab binding domain) of Mical-3, residues 1841-1990 (domain or fragment, human, UniProt Q7RTP6 1841-1990, looked up)
# chain: KQEELKRLHRAQIIQRQLQQVEERQRRLEERGVAVEKALRGEAGMGKKDDPKLMQEWFKLVQEKNAMVRYESELMIFARELELEDRQSRLQQELRERMAVEDHLKTEEELSEEKQILNEMLEVVEQRDSLVALLEEQRLREREEDKDLEA
# notes: Mical-3, human, whole predicted bMERB domain, residues 1841-1990 (isoform 1); printed elsewhere as 1841-1992; Limits are stated for the crystallised selenomethionine construct; also called Mical-3_(1841-1990); RBD of Mical-3
# B3: bMERB domain (Rab binding domain) of Mical-cL, residues 534-683 (domain or fragment, human, UniProt O94851 1796-1945, looked up)
# chain: KQEELKRLYKAQAIQRQLEEVEERQRASEIQGVRLEKALRGEADSGTQDEAQLLQEWFKLVLEKNKLMRYESELLIMAQELELEDHQSRLEQKLREKMLKEESQKDEKDLNEEQEVFTELMQVIEQRDKLVDSLEEQRIREKAEDQHFES
# notes: Mical C-terminal like protein (Mical-cL), human, bMERB domain, residues 534-683; Limits are stated for the crystallised construct; also called Mical-cL_(534-683); RBD of Mical-cL
# B4: bMERB domain (Rab binding domain) of EHBP1 (domain or fragment)
# chain: not shown
# notes: EHBP1 1047-1231 (bMERB domain with CaaX box) is named for the prenylation and localisation experiments only; also called RBD of EHBP1
# B5: bMERB domain (Rab binding domain) of EHBP1L1 (domain or fragment)
# chain: not shown
# notes: EHBP1L1, human, bMERB domain; EHBP1L1 1340-1523 (bMERB domain with CaaX box) is named for the prenylation and localisation experiments only; also called RBD of EHBP1L1
# Target: T1, Rab1b, full length, loaded with GppNHp (human, UniProt Q9H0U4 1-201)
# T1 construct: Rab1b, human; called Rab1 in the results and Rab1bFl in the crystallisation methods; also called Rab1bFl; source: expressed and purified as described previously (Schoebel et al., 2009), loaded with GppNHp, gel filtration
# Experiment: ITC; iTC200, 25°C; 400 µM Rab titrated into 20–40 µM bMERB domain in the cell; 20 mM Hepes pH 7.5, 50 mM NaCl, 2 mM MgCl2, 1 mM TCEP
# Settings: both partners purified
row,Binder,Kd [µM]
1,B1,2.2
2,B2,2.6
3,B3,5.2
4,B4,> 10
5,B5,> 10
